The results in this text go back to US20250163070A1, “SPIRO COMPOUND AND APPLICATION THEREOF” (HITGEN INC., priority 2022, published 2025).

By UniProt entry, the sequences of proteins in these tests, tags left out.
UniProt Q96SW2, whole entry, species assumed: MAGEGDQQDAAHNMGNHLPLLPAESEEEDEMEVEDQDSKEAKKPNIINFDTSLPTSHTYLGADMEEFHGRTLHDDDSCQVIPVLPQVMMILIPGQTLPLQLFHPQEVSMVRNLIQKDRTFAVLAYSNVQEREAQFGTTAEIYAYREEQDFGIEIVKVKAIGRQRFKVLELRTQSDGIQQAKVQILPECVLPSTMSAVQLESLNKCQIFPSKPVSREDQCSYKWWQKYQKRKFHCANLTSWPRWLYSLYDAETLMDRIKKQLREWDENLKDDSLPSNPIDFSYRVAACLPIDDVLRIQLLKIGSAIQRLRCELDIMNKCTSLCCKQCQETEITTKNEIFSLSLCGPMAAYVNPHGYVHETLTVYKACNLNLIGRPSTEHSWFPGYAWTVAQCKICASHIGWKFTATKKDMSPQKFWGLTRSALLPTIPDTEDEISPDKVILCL

The target of the assay is CRBN/DDB1 protein (Homo sapiens (Human), UniProt Q96SW2). Nature of the assay: Inhibition of CRBN/DDB1 protein activity, fluorescence resonance energy transfer (FRET) method with FITC-labeled thalidomide analog. As to conditions: 5.0 nM CRBN/DDB1, 50.0 nM FITC-labeled thalidomide analog, 25° C., pH 7.0. The class given is binding. An excerpt: Experiment 1 Detection of Compounds Inhibition of CRBN/DDB1 Protein Activity (Using a Fluorescence Resonance Energy Transfer (FRET) Method)
Microplate reader (BMG PHERAstar FSX), ECHO (LABCYTE Echo 665), microplate thermostatic oscillator (Hangzhou Ruicheng Instrument Co., Ltd.), disodium hydrogen phosphate (Sigma-Aldrich (Shanghai) Trading Co., Ltd.), sodium dihydrogen phosphate (Sigma-Aldrich (Shanghai) Trading Co., Ltd.), bovine serum albumin (Sigma-Aldrich (Shanghai) Trading Co., Ltd.), Anti-6His-Tb crypate Gold (Cisbio Bioassays Company CISBIO), CRBN/DDB1 protein (HitGen Inc.), 384-well plate (Grenier Bio-one (Shanghai) Co., Ltd.).
The compound powders were dissolved in DMSO and serially diluted using ECHO. The resulting dilutions were individually added to 384-well reaction plates, ensuring that the final concentration of DMSO in the entire reaction system (10.0 μL) was 1.0%. […]
The CRBN/DDB1 protein was diluted to twice the required final concentration (5.0 nM) by addition of 20 mM disodium hydrogen phosphate, 20 mM sodium dihydrogen phosphate, 0.08% bovine serum albumin and a buffer with pH 7.0. […] After the reaction was completed, the fluorescence signal values in the 384-well reaction plates were read using the microplate reader (Ex=337 nm, Em=520/490 nm). […]
The residual activity percentage at each concentration was calculated using the following formula: […]

What is called IC50 is the concentration needed to halve the response being measured. Lower therefore signals higher potency. With `CN(C)C(=O)c1oc2ccccc2c1C(=O)N1CC2(CC(=O)NC2=O)C1` [Compound A20], the IC50 is < 100 nM. With `CN(C)Cc1[nH]c2ccccc2c1C(=O)N1CC2(CC(=O)NC2=O)C1` [Compound A16], the IC50 was 1000 to 10000 nM.
